Earlier results on one substance are cited in patent publication US5054434A, “Suppression of ammonia odors from animal wastes” (W. R. Grace & Co.-Conn., priority 1989, dated 1991).

For this series the following is noted: smell of the acid itself; cited from earlier work.

For the substance phosphoric acid, the Smell result is “None”.
